Patent US7754689B2, “Finger-1 peptide analogs of the TGF-β superfamily” (Wyeth LLC, priority 2006, dated 2010)

Columns and labels:
Format in all cases: binding
BMP-3 and BMP-12 = test: HPLC columns of BMP affinity resins loaded with BMP-3 and BMP-12; details: columns loaded with BMP-3 and BMP-12
Procedure: The BMP affinity resins using BMP-12 and BMP-2 were prepared as described in Examples 1 and 2 and used to prepare HPLC columns. These columns were used loaded with BMP-3 and BMP-12. […] In some cases, size exclusion or reverse phase chromatography techniques were employed to enhance purification.

BMP-3 = biological target: T1, BMP-3 (Homo sapiens, UniProt P12645); test: Affinity column chromatography, capture and elution of BMP-3
T1 construct: a propeptide fragment copurifies along with the mature protein; made in house; host or cells: CHO cells (conditioned medium)
T1 sequence (P12645 363-472): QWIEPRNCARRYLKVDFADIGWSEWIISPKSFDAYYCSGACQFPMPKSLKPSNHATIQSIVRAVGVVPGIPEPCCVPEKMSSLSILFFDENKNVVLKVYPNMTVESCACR
Procedure: (§1) BMP-12 was immobilized on NHS-activated Sepharose™ beads at a ratio of about 20 mg:4 mL and the resulting media combined with water or neutral saline buffer to prepare a column. CHO-conditioned media augmented with 1.2 M NaCl was loaded onto the column. In some cases, the media was preconcentrated with respect to BMP before loading. The column was washed with 15 CV (column volumes) of 1.2 M NaCl in 40 mM Na2HPO4 at pH 7.2, followed by 0.5 M arginine/0.5 M NaCl in 20 mM Tris at pH 7.5 (15 CV) and a low salt wash (50 mM ammonium acetate at pH 7, 15 CV). […] Finally, the column was eluted with 5CV of the acetic acid solution with 6M guanidine hydrochloride (GuHCl).
The eluate was analyzed using HPLC.
BMP-2 was immobilized on sepharose beads as in Example 1 and used to test the loading and elution of BMP-3. […] As for the BMP-12 column, a propeptide fragment copurifies along with the mature protein, and trace amounts of the mature BMP-3 were also observed in the guanidine peak.
A mutant of the BMP-2 finger 1 peptide ([…]) (SEQ ID NO: 1) was linked to sepharose beads via a C-terminal lysine at a ratio of 5 mg peptide/mL resin. 4 mL of the resulting resin (1.6×2.0 cm) was used to prepare a column. The column was loaded with BMP-3 and eluted as in Example 1. […] In general, chromatography with the immobilized peptides provided higher purity product than with the whole protein. […]

BMP-12 = biological target: T2, BMP-12 (Homo sapiens, UniProt Q7Z4P5); test: Affinity column chromatography, capture and elution of BMP-12
T2 sequence (Q7Z4P5 322-450): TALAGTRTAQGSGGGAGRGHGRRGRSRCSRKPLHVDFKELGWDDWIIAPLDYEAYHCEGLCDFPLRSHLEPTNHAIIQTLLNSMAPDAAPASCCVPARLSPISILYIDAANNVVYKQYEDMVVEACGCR
Procedure: as §1
BMP-12 was loaded and eluted from a BMP-12 affinity column as in Example 1. […] Both the monomeric and dimeric forms of BMP-12 were captured.
BMP-12 was loaded and eluted from a BMP2 affinity column as in Examples 1 and 2.
BMP-12 was purified using a column prepared with the BMP-2 mutant peptide described in Example 6. […] A small amount of BMP-12 eluted with 6M GuHCl.
BMP-12 was purified using a column prepared with the BMP-12 wild type peptide described in Example 7. […] A small amount of BMP-12 eluted with 6M GuHCl.

[1] = washes, then gradient to 50 mM acetic acid pH 3, then 6M GuHCl

capture of BMP-3 by column with immobilized ligand (BMP-3; CHO-conditioned media with 1.2 M NaCl (high salt) load): effectively captured | elution of BMP-3 from column with immobilized ligand (BMP-3; [1]): eluted with acetic acid | capture of BMP-12 by column with immobilized ligand (BMP-12; high salt / high ionic strength load): effectively captured | elution of BMP-12 from column with immobilized ligand (BMP-12; [1]): eluted with acetic acid and guanidine
Substance: BMP-2: Bone Morphogenic Protein, member of the TGF-β superfamily; immobilized on sepharose beads as affinity ligand
effectiveness as affinity ligand for reverse phase HPLC (BMP-3 and BMP-12): equally effective
